# High-throughput results deposited in PubChem BioAssay by National Center for Advancing Translational Sciences (NCATS).
# Sampled rows, rich in hits. Any-hit rate of the full collection: about 16%.
# miR-21 FLuc = raises the signal of a miR-21 reporter; HeLa miR-21 FLuc reporter, luciferase, 48 h; Potency, µM (highest dose often 38.3 µM), inactives show at the highest dose reporter change, positive = more light; 340,000 tested, under 10 active; active = well fitted rising curve with a large enough effect; inconclusive = small, poorly fitted or top-dose-only effect; inactive = no such curve, though single readings can be large or run the other way;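 note: % of control where 0% means no effect; miR-21 action dims this reporter so a rising signal means less miR-21 action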
#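 HeLa miR-21-FLuc reporter line, endogenous miR-21; 2000 cells/well in DMEM/10% FBS; compound titration up to ~40uM final, 48 h, 37 degree Celsius; luciferase detection reagent, 15 min lysis, CCD luminescence.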
# uPA surface inh = cell surface uPA generation inhibition | cell surface uPA generation assay, qHTS | Potency, µM (highest dose often 38.3 µM), for inactives: top-dose activity change, negative = inhibition, most hits filed as inhibitors | 0.31% of 330,000 active | AID 540303; active means well fitted inhibition curve with a large enough effect; inconclusive means small, poorly fitted or top-dose-only effect; inactive means no such curve, though single readings can be large or run the other way; tested in mouse RAW 264.7 cells; further: potency means the concentration at half of the fitted maximal effect; on the % scale 0 is the no-effect control and ±100 the full control effect; nearly all actives have a fitted effect of over 55% in size
# TDP1 block = blocks human tyrosyl-DNA phosphodiesterase 1; Q9NUW8; recombinant TDP1, AlphaScreen DNA substrate cleavage; Potency, µM (series often up to 130 µM), for the others: top-dose activity change, negative = inhibition, usual class: inhibitors; 0.28% of 350,000 active; AID 485290; further: potency means the concentration at half of the fitted maximal effect; on the % scale 0 is the no-effect control and ±100 the full control effect; nearly all actives have a fitted effect of over 40% in size
#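 Signal: AlphaScreen proximity between streptavidin donor and anti-FITC acceptor beads on intact substrate. Reaction: Tdp1 1 nM, substrate 15 nM final, 5 min RT after 15 min compound preincubation.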
# DT40 TDP1 no CPT = qHTS for Inhibitors of human tyrosyl-DNA phosphodiesterase 1 (TDP1): qHTS in cells in absence of CPT | AID 686978, 2013 | Potency, µM (highest dose often 46.2 µM), for inactives: top-dose activity change, negative = growth inhibition, hits mostly inhibitors | DT40 Tdp1-/- hTDP1 cells, no CPT, ATP luminescence, 48 h | 15% of 420,000 active; further: potency means the concentration at half of the fitted maximal effect; on the % scale 0 is the no-effect control and ±100 the full control effect; nearly all actives have a fitted effect of over 55% in size
#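 Growth of hTDP1-complemented DT40 Tdp1-knockout cells is measured by ATP luminescence after at least 48 hr compound exposure at 37 °C, with DMSO substituting for the 20 nM CPT used in the parallel screen.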
# TDP1 cell CPT = DT40-hTDP1 cell growth loss with CPT; 12% of 420,000 active; chicken DT40 Tdp1-/-;hTDP1 cells + 20 nM CPT, ATP luminescence, 48 h; Potency, µM (series often up to 46.2 µM), for the others: at the top dose activity change, negative = growth inhibition, usual class: inhibitors; further: potency means the concentration at half of the fitted maximal effect; on the % scale 0 is the no-effect control and ±100 the full control effect; nearly all actives have a fitted effect of over 55% in size
#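 Chicken DT40 Tdp1-/- cells stably complemented with human TDP1 were seeded at 400 cells/well in medium containing 20 nM camptothecin, exposed to pin-transferred compounds, and grown at 37 °C for at least 48 hr. Viability was read as ATP luminescence.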
# An asterisk follows results filed as active; ? = inconclusive; · = no result. Unless noted, the call rests on the fitted dose curve; in most records, active means well fitted curve in the direction sought with a large enough effect; inconclusive means small, poorly fitted or top-dose-only effect, or another doubt; inactive means no such curve, though single readings can be large; an effect the other way counts as inactive or inconclusive.
# Preview:
cpd | mol | miR-21 FLuc | uPA surface inh | DT40 TDP1 no CPT
1 | Cc1cccc(Nc2c(-c3cccs3)nc3nc(C)cc(C)n23)c1 | 1% | · | ?
2 | CCN(CC(=O)NCc1cccs1)S(=O)(=O)c1cccc(C(C)=O)c1 | -2% | 0% | -14%
3 | CCC1Sc2ccc(S(=O)(=O)CCC(=O)NC3CCCCCC3)cc2NC1=O (configuration not stated) | 22% | -3% | ?
4 | Cc1ccccc1OCCCN1C(=O)C(=O)c2cccc(C)c21 | -1% | ? | 1.8µM*

cpd | TDP1 block | TDP1 cell CPT
1 | 8% | 26µM*
2 | -3% | -17%
3 | 0% | ?
4 | 14% | 2.6µM*

# Results (from the top)
cpd | mol | miR-21 FLuc | uPA surface inh | DT40 TDP1 no CPT
1 | Cc1cccc(Nc2c(-c3cccs3)nc3nc(C)cc(C)n23)c1 | 1% | · | ?
2 | CCN(CC(=O)NCc1cccs1)S(=O)(=O)c1cccc(C(C)=O)c1 | -2% | 0% | -14%
3 | CCC1Sc2ccc(S(=O)(=O)CCC(=O)NC3CCCCCC3)cc2NC1=O (configuration not stated) | 22% | -3% | ?
4 | Cc1ccccc1OCCCN1C(=O)C(=O)c2cccc(C)c21 | -1% | ? | 1.8µM*
5 | Cc1ccc(OCC(=O)OCCN2C(=O)c3ccccc3C2=O)cc1C | -1% | -1% | -6%
6 | Cc1cccc2c1N(CCCOc1ccc(C(C)(C)C)cc1)C(=O)C2=O | -6% | ? | 18µM*
7 | CCOc1ccc(CN2C(=O)C(=O)c3cccc(C)c32)cc1OC | -6% | · | 1.6µM*
8 | Cc1cccc2c1N(CCCOc1ccccc1)C(=O)C2=O | -10% | -2% | 16µM*
9 | CCOc1ccc(CN(C)C(=O)CCN2C(=O)c3ccccc3C2=O)cc1OC | -2% | -1% | -6%
10 | Cc1ccc(-c2nc3c4ccccc4n(CC(=O)N4CCN(c5ccccc5F)CC4)c(=O)n3n2)cc1 | 4% | · | -12%
11 | CCCCOC(=O)Cn1c(=O)c2c(nc(Br)n2Cc2ccccc2)n(C)c1=O | -6% | 12% | ?
12 | Cc1cccc(NC(=O)CSc2cccc[n+]2[O-])c1C | · | -2% | -9%
13 | Cc1ccc(OCCN2C(=O)c3ccccc3C2=O)c(C)c1 | -12% | 0% | -8%
14 | Cc1ccc2c(c1)C(=O)C(=O)N2CCCOc1ccccc1C | -3% | 1% | 2.9µM*
15 | Cc1cccc(NC(NC(=O)Cc2ccccc2)C(Cl)(Cl)Cl)c1 (configuration not stated) | -2% | -8% | 21µM*

cpd | TDP1 block | TDP1 cell CPT
1 | 8% | 26µM*
2 | -3% | -17%
3 | 0% | ?
4 | 14% | 2.6µM*
5 | 1% | -25%
6 | 12% | ?
7 | -5% | ?
8 | 8% | 9.2µM*
9 | 0% | 10%
10 | -3% | -17%
11 | -6% | ?
12 | 0% | -7%
13 | -1% | 25%
14 | 6% | 3.3µM*
15 | 3% | 18µM*

# Additional structures:
cpd | mol | miR-21 FLuc | uPA surface inh | DT40 TDP1 no CPT
16 | Cc1ccc(NC(NC(=O)Cc2ccccc2)C(Cl)(Cl)Cl)cc1 (configuration not stated) | 1% | -5% | ?
17 | CCC(c1nnnn1-c1ccc2c(c1)OCCO2)N1CCN(C)CC1 (configuration not stated) | · | · | -23%
18 | CCC(c1nnnn1-c1ccc2c(c1)OCCO2)N1CCN(c2ccc(C(F)(F)F)cc2[N+](=O)[O-])CC1 (configuration not stated) | · | · | 23µM*
19 | CC(CN1CCOCC1)OC(=O)c1cccc(Cl)c1 (configuration not stated) | 0% | 13% | 12%
20 | C[n+]1ccc(/C=C/c2ccc3ccccc3c2)cc1 | · | · | ?
21 | CN(C)c1ccc(/C=C/c2ccc3ccccc3[n+]2C)cc1 | ? | -15% | 0.13µM*
22 | CN(C)c1ccc(/C=C/c2ccc3c4ccccc4ccc3[n+]2-c2ccccc2)cc1 | ? | -15% | 0.16µM*
23 | [O-][n+]1c(/C=C/c2ccccc2)ccc2ccccc21 | -14% | ? | 16µM*
24 | [O-][n+]1ccccc1/C=C/c1ccccc1 | · | 1% | -2%
25 | CN(C)c1ccc(/C=C/c2cc3ccccc3c[n+]2C)cc1 | · | · | 0.1µM*
26 | CCCN(CC(=O)Nc1ccccc1OC)C(=O)CC1CCCC1 | · | -4% | ?
27 | Cc1ccc(NC(=S)NNC(=O)c2cn(C)nc2C)cc1 | -16% | -3% | -1%
28 | O=C(c1ccccc1)c1c[nH]c2cc3c(cc2c1=O)OCCO3 | -59% | -4% | -24%
29 | CN(C)c1ccc(/C=C/c2c[n+](C)cc3ccccc23)cc1 | · | · | 0.28µM*
30 | O=C(C[n+]1cccc(Br)c1)c1ccc(I)cc1 | · | · | -94%
31 | O=C(CBr)c1ccc(Oc2ccc(C(=O)C[n+]3cccc(Br)c3)cc2)cc1 | · | · | 16µM*

cpd | TDP1 block | TDP1 cell CPT
16 | 3% | ?
17 | · | 7%
18 | · | 15µM*
19 | 3% | 1%
20 | 7% | ?
21 | 3% | 0.16µM*
22 | 15% | 0.21µM*
23 | · | 21µM*
24 | · | 5%
25 | · | 0.089µM*
26 | 1% | ?
27 | 0% | -14%
28 | 3% | -24%
29 | · | 0.35µM*
30 | · | 2.2µM*
31 | · | ?
